In patent publication US20100061996:

Target: Lys-plasminogen (UniProt P00747)

## uPA (urokinase-type plasminogen activator), high molecular weight two-chain form
  initial rate of plasmin generation by uPAHepsin (plasminogen activation assay): 29.3±5.0 nM plasmin min^-1
  initial rate of plasmin generation by uPAPlasmin (plasminogen activation assay): 26.4±4.5 nM plasmin min^-1
